Data on 17 molecules can be found in patent publication US20260382731A1, “BCL-2/BCL-XL PROTEIN DEGRADER AND USE THEREOF” (published 2026).

By UniProt entry, the sequences of proteins in these tests, tags left out.
UniProt Q07817, whole entry: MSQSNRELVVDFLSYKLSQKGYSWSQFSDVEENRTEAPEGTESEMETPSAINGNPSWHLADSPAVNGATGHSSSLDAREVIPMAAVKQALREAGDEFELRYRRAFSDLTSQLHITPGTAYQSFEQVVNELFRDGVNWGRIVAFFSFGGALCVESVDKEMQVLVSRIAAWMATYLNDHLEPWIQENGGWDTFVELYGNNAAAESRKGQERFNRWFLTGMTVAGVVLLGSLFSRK

The test system of one assay is MOLT-4 cells. As to the kind of experiment: Cell viability assay, MOLT-4 (CellTiter-Glo, 72 h). Particulars: read-out: MOLT4 Cell viability IC50. In general terms: Cellular ATP, detected with luciferase, serves as a proxy for viable cell number.
Another assay relates to NCI-H146 cells. Briefly: Cell viability assay, NCI-H146 (CellTiter-Glo, 72 h). Particulars: read-out: NCI-H146 Cell viability IC50. As to the method: Human T-ALL cell MOLT-4 or SCLC NCI-H146 was cultured using standard cell culture conditions in RPMI-1640 supplemented with 10% FBS in humidified incubator at 37 °C, 5% CO2. To assess the effect of BCL-XL PROTAC degraders on cell viability, exponentially growing cells were seeded at a density of 10,000 cells/well in 96-well plates. After cell seeding, serially-diluted compound or DMSO was added to the cells (in concentration ranging from 0 to 10 uM, 3* dilution series), and plates were incubated for 72 hours. Cell viability was measured using a CellTiter-Glo Luminescent Cell Viability Assay kit (Promega) according to the manufacturer's protocol. The luminescence signal of treated cells was normalized to DMSO control. The dose response curves and IC50 values were generated using Prism.

The target of a further assay is BCL-XL (Homo sapiens, UniProt Q07817). As to the kind of experiment: Immunoblotting: BCL-XL protein degradation. Particulars: read-out: MDA-MB-231 degradation DC50, MDA-MB-231 cells.
In the next assay the test system is human platelets. As to the kind of experiment: Platelet viability test (CellTiter-Glo, 72 h). Particulars: read-out: Human platelet IC50. On the procedure: Human platelet-rich Plasma (PRP) was purchased from Milestone® Biotechnology Limited. PRPS are used for experiments immediately after arrival. Transfer PRP to a 50-mL polypropylene EP tube containing 5 mL citrate buffer (cat. no. sc-214744, Santa Cruz Biotechnology). To avoid clotting, The final concentration of prostaglandin E1 (PGE1, cat. no. sc-201223A, Santa Cruz Biotechnology) and adenosine diphosphonase triphosphate (cat. no. A6410-200UN, 2 units/mL, respectively) were added to the EP tube. Sigma-Aldrich). Slightly shake and mix the liquid in the EP tube, centrifuge it at 1200 g for 10 minutes, and separate the platelets. HEPES buffer benchtop solution (10 mM HEPES, 135 mM NaCl, 2.8 mM KCl, 1 mM MgCl2, 2 mM CaCl2), 10 mm Hepes, 135 mm NaCl, 2.8 mm KCL, 1 mm MgCl2, 2 mm CaCl2)) was prepared with 2 mL of prostaglandin E1 and 2 units/mL of adenosine bisphosphonase triphosphate. 12 mM NaHCO3, 0.4 mM NaH2PO4, 0.25% BSA and 5.5 mM glucose, pH 7.4; cat. no. Cat. No. Cat. #:25-02580, Tiandz) continuously and gently clean the platelet precipitates after centrifugation. After washing, platelets were slowly reinserted to HEPES buffer table solution containing 1 μM of prostaglandin E1 and 2 units/mL of adenosine bisphosphonase triphosphate. Platelets were counted by Vi-cell XR (Backman) cell counter. Platelet activity tests were performed: platelets were resuscitated into a HEPES buffer solution containing 1 µM of prostaglandin E1 and 2 units/mL of adenosine bisphosphonase triphosphate and 10% FBS, counted, and inoculated into 96-well plates with 5×10^5 platelets per well. Different concentrations of the compound to be detected (starting at 10 μM, diluted 3 times) were added to 96-well plates and incubated in the cell incubator for 72 h. 72 h after administration, platelet activity was detected by CellTiter-Glo™ luminescence assay.

Usually IC50 stands for the concentration that inhibits the measured activity by half. The term DC50 denotes the concentration giving 50% degradation.

As for `CCn1c(C)c(S(C)(=O)=O)c(-c2cc(F)cc(N3CCN(c4ccc(NS(=O)(=O)c5ccc(N[C@H](CCN6CCN(C7CCN(CCOc8cc([C@H](C(=O)N9C[C@H](O)C[C@H]9C(=O)N[C@@H](CO)c9ccc(-c%10scnc%10C)cc9)C(C)C)on8)CC7)CC6)CSc6ccccc6)c(S(=O)(=O)C(F)(F)F)c5)cn4)CC3)c2)c1-c1ccc(F)cc1`, the values for the IC50 with MOLT-4 cells and in the assay on NCI-H146 cells were 7 nM and 41 nM, respectively.
On to `CCn1c(C)c(S(C)(=O)=O)c(-c2cc(F)cc(N3CCN(c4ncc(NS(=O)(=O)c5ccc(N[C@H](CCN6CCN(C7CC(Oc8cc([C@H](C(=O)N9C[C@H](O)C[C@H]9C(=O)N[C@@H](CO)c9ccc(-c%10scnc%10C)cc9)C(C)C)on8)C7)CC6)CSc6ccccc6)c(S(=O)(=O)C(F)(F)F)c5)cn4)CC3)c2)c1-c1ccc(F)cc1` (single isomer, unassigned) [370], for which the 50% inhibitory concentration (IC50) with MOLT-4 cells is 4 nM; with NCI-H146 cells it was 17 nM.
In the case of `CCn1c(C)c(S(C)(=O)=O)c(-c2cc(F)cc(N3CCN(c4ncc(NS(=O)(=O)c5ccc(N[C@H](CCN6CCN(C7CC(Oc8cc([C@H](C(=O)N9C[C@H](O)C[C@H]9C(=O)N[C@@H](CO)c9ccc(-c%10scnc%10C)cc9)C(C)C)on8)C7)CC6)CSc6ccccc6)c(S(=O)(=O)C(F)(F)F)c5)cn4)CC3)c2)c1-c1ccc(F)cc1` (single isomer, unassigned) [372], the half-maximal inhibitory concentration (IC50) turned out to be 2 nM in the assay with MOLT-4 cells and 10 nM in the assay with NCI-H146 cells.
In the same order, the values of `CCn1c(C)c(S(C)(=O)=O)c(-c2cc(F)cc(N3CCN(c4cnc(NS(=O)(=O)c5ccc(N[C@H](CCN6CCN(C7CCN(CCOc8cc([C@H](C(=O)N9C[C@H](O)C[C@H]9C(=O)N[C@@H](CO)c9ccc(-c%10scnc%10C)cc9)C(C)C)on8)CC7)CC6)CSc6ccccc6)c(S(=O)(=O)C(F)(F)F)c5)cn4)CC3)c2)c1-c1ccc(F)cc1` are 3 nM and 12 nM.
In the same order, the values of `CCn1c(C)c(S(C)(=O)=O)c(-c2cc(F)cc(N3CCN(c4ncc(NS(=O)(=O)c5ccc(N[C@H](CCN6CCN(C7CC(Oc8cc([C@@H](C(=O)N9C[C@H](O)C[C@H]9C(=O)N[C@@H](CO)c9ccc(-c%10scnc%10C)cc9)C(C)C)on8)C7)CC6)CSc6ccccc6)c(S(=O)(=O)C(F)(F)F)c5)cn4)CC3)c2)c1-c1ccc(F)cc1` (single isomer, unassigned) [369] are 221 nM and 377 nM.
As for `CCn1c(C)c(S(C)(=O)=O)c(-c2cc(F)cc(N3CCN(c4ccc(NS(=O)(=O)c5ccc(N[C@H](CCN6CCN(C(=O)CCCCCCC(=O)N[C@H](C(=O)N7C[C@H](O)C[C@H]7C(=O)N[C@@H](C)c7ccc(-c8scnc8C)cc7)C(C)(C)C)CC6)CSc6ccccc6)c(S(=O)(=O)C(F)(F)F)c5)cc4)CC3)c2)c1-c1ccc(F)cc1`, on BCL-XL, the DC50 worked out at 2 nM. For the same molecule, the concentration for half-maximal inhibition (IC50) in the assay on MOLT-4 cells was found to be 50 nM; in the assay on human platelets it was 840 nM.
In the case of `CCn1c(C)c(S(C)(=O)=O)c(-c2cc(F)cc(N3CCN(c4ccc(NS(=O)(=O)c5ccc(N[C@H](CCN6CCN(C(=O)CCCCCC(=O)N[C@H](C(=O)N7C[C@H](O)C[C@H]7C(=O)N[C@@H](C)c7ccc(-c8scnc8C)cc7)C(C)(C)C)CC6)CSc6ccccc6)c(S(=O)(=O)C(F)(F)F)c5)cc4)CC3)c2)c1-c1ccccc1`, the 50% degradation concentration (DC50) on BCL-XL is 0.5 nM. Further, the IC50 in the assay with MOLT-4 cells was determined as 15 nM; in the assay with human platelets it was 108 nM.
For `Cc1ncsc1-c1ccc([C@H](C)NC(=O)[C@@H]2C[C@@H](O)CN2C(=O)[C@@H](NC(=O)CCCCCC(=O)N2CCN(CC[C@H](CSc3ccccc3)Nc3ccc(S(=O)(=O)Nc4ccc(N5CCN(c6cc(F)cc(-c7c(C(=O)N8CC[C@H](O)C8)c(C)n(C(C)C)c7-c7ccc(F)cc7)c6)CC5)cc4)cc3S(=O)(=O)C(F)(F)F)CC2)C(C)(C)C)cc1` the same measures were 4 nM, 7 nM and 810 nM.
For the molecule `CCn1c(C)c(S(C)(=O)=O)c(-c2cc(F)cc(N3CCN(c4ccc(NS(=O)(=O)c5ccc(N[C@H](CCN6CCN(C(=O)CCCCCC(=O)N[C@H](C(=O)N7C[C@H](O)C[C@H]7C(=O)N[C@@H](C)c7ccc(-c8scnc8C)cc7)C(C)(C)C)CC6)CSc6ccccc6)c(S(=O)(=O)C(F)(F)F)c5)cc4)CC3)c2)c1-c1ccc(Cl)cc1`, the DC50 on BCL-XL is 19 nM. For the same molecule, the 50% inhibitory concentration (IC50) stood at 23 nM in the assay with MOLT-4 cells and 128 nM in the assay with human platelets.
For `Cc1ncsc1-c1ccc([C@H](C)NC(=O)[C@@H]2C[C@@H](O)CN2C(=O)[C@@H](NC(=O)CCCCCC(=O)N2CCN(CC[C@H](CSc3ccccc3)Nc3ccc(S(=O)(=O)Nc4ccc(N5CCN(c6cc(F)cc(-c7c(C(=O)N8CC[C@H](O)C8)c(C)n(C(C)C)c7-c7ccccc7)c6)CC5)cc4)cc3S(=O)(=O)C(F)(F)F)CC2)C(C)(C)C)cc1` the same measures were 15 nM, 9 nM and 151 nM.
For `CCn1c(C)c(C(=O)N2CCC(NS(C)(=O)=O)C2)c(-c2cc(F)cc(N3CCN(c4ccc(NS(=O)(=O)c5ccc(N[C@H](CCN6CCN(C(=O)CCCCCC(=O)N[C@H](C(=O)N7C[C@H](O)C[C@H]7C(=O)N[C@@H](C)c7ccc(-c8scnc8C)cc7)C(C)(C)C)CC6)CSc6ccccc6)c(S(=O)(=O)C(F)(F)F)c5)cc4)CC3)c2)c1-c1ccc(F)cc1` (stereo partly shown) the same measures were 6 nM, 23 nM and 7420 nM.
As for `CCn1c(C)c(C(=O)NCCN(C)C)c(-c2cc(F)cc(N3CCN(c4ccc(NS(=O)(=O)c5ccc(N[C@H](CCN6CCN(C(=O)CCCCCC(=O)N[C@H](C(=O)N7C[C@H](O)C[C@H]7C(=O)N[C@@H](C)c7ccc(-c8scnc8C)cc7)C(C)(C)C)CC6)CSc6ccccc6)c(S(=O)(=O)C(F)(F)F)c5)cc4)CC3)c2)c1-c1ccc(Cl)cc1`, at BCL-XL, the half-maximal degradation concentration (DC50) worked out at 18 nM. The IC50 came to 13 nM with MOLT-4 cells and 42 nM in the assay on human platelets.
For `CCn1c(C)c(S(C)(=O)=O)c(-c2cc(F)cc(N3CCN(c4ccc(NS(=O)(=O)c5ccc(N[C@H](CCN6CC[C@H](NC(=O)CCCCCC(=O)N[C@H](C(=O)N7C[C@H](O)C[C@H]7C(=O)N[C@@H](C)c7ccc(-c8scnc8C)cc7)C(C)(C)C)C6)CSc6ccccc6)c(S(=O)(=O)C(F)(F)F)c5)cc4)CC3)c2)c1-c1ccc(F)cc1` the same measures were 22 nM, 15 nM and 548 nM.
Take `CCn1c(C)c(C(=O)N2C[C@H](O)[C@@H](O)C2)c(-c2cc(F)cc(N3CCN(c4ccc(NS(=O)(=O)c5ccc(N[C@H](CCN6CCN(C(=O)CCCCCC(=O)N[C@H](C(=O)N7C[C@H](O)C[C@H]7C(=O)N[C@@H](C)c7ccc(-c8scnc8C)cc7)C(C)(C)C)CC6)CSc6ccccc6)c(S(=O)(=O)C(F)(F)F)c5)cc4)CC3)c2)c1-c1ccc(F)cc1`: the DC50 on BCL-XL stood at 9 nM. Moreover, the IC50 in the assay on MOLT-4 cells was found to be 52 nM; with human platelets it was 1800 nM.
In the same order, the values of `Cc1ncsc1-c1ccc([C@H](C)NC(=O)[C@@H]2C[C@@H](O)CN2C(=O)[C@@H](NC(=O)CCCCCC(=O)N2CCC3(CC2)CN(CC[C@H](CSc2ccccc2)Nc2ccc(S(=O)(=O)Nc4ccc(N5CCN(c6cc(F)cc(-c7c(S(C)(=O)=O)c(C)n(C)c7-c7ccc(F)cc7)c6)CC5)cc4)cc2S(=O)(=O)C(F)(F)F)C3)C(C)(C)C)cc1` are 2 nM, 128 nM and 72 nM.
In the same order, the values of `CCn1c(C)c(S(C)(=O)=O)c(-c2cc(F)cc(N3CCN(c4ccc(NS(=O)(=O)c5ccc(N[C@H](CCN6CCN(C(=O)CCCOCC(=O)N[C@H](C(=O)N7C[C@H](O)C[C@H]7C(=O)N[C@@H](C)c7ccc(-c8scnc8C)cc7)C(C)(C)C)CC6)CSc6ccccc6)c(S(=O)(=O)C(F)(F)F)c5)cc4)CC3)c2)c1-c1ccc(F)cc1` are 3 nM, 31 nM and 640 nM.
For `CCn1c(C)c(S(C)(=O)=O)c(-c2cc(F)cc(N3CCN(c4ccc(NS(=O)(=O)c5ccc(N[C@H](CCN6CCC7(CC6)CN(C(=O)CCCCCC(=O)N[C@H](C(=O)N6C[C@H](O)C[C@H]6C(=O)N[C@@H](C)c6ccc(-c8scnc8C)cc6)C(C)(C)C)C7)CSc6ccccc6)c(S(=O)(=O)C(F)(F)F)c5)cc4)CC3)c2)c1-c1ccc(F)cc1` the same measures were 4 nM, 64 nM and 132 nM.
